# Experimental data: patent US20140163075A1, “MODULATION OF THE UBIQUITIN-PROTEASOME SYSTEM (UPS)” (NETHERLAND CANCER INSTITUTE, priority 2011, published 2014)
# Test system: proteasome subunits (β2- and β5-subunits)
# Assay: SDS-PAGE in-gel fluorescence of probe-labelled proteasome subunits in MelJuSo (MEL-JUSO) cells
# Type: cell-based, human
# Method: Cells were washed once with phosphate buffered saline (PBS, 1 GIBCO tablet in 500 mL MilliQ). Fresh medium containing the compound at the indicated concentration was added. After the incubation time 200 nM of Me4BodipyFL-Ahx3Leu3VS activity probe was added to the cells and after two hours of incubation cells were harvested for subsequent analysis by FACS or post-lysis fluorescence detection.
# Cells were washed once with PBS, trypsin (6 well plate: 500 μL, 12 well plate: 200 μL, 24 well plate: 100 μL) was added and the plate was placed at 37° C. for 5 minutes to allow the cells to detach. When fully detached the cells were resuspended in fresh culture medium. […] After a centrifugation step (13.600 rpm for 10 minutes) to remove cell debris the protein concentration (absorbance at 280 nm) of the supernatant is measured with a NanoDrop spectrophotometer. […]
# Equal amounts of protein (15-20 μg) were denatured by heating the samples for 10 minutes at 71° C. in loading buffer (450 μL 4× loading buffer (Invitrogen), 45 μL β-Mercaptoethanol and 105 μl, MilliQ, 2 parts sample to 1 part loading buffer). […] Images were analyzed using Totallab analysis software (Nonlinear Dynamics, Newcastle upon Tyne, UK) to quantify the intensity of the bands detected. […]
compound,measurement,value
O=[N+]([O-])c1ccc(-c2nc(-c3ccc(F)cc3)c(-c3ccncc3)[nH]2)cc1 [PD169316],fluorescent signal of the β2- and β5-subunits,seemed to increase the fluorescent signal
